# Rows were chosen to be rich in hits. Some 2.1% of all compounds tested hit in one or more screens of this group.
# PGC1a acetyl inh = lowers PGC1a acetylation signal in U2OS cells. AID 651687. AlphaScreen anti-acetyl-lysine; with virally co-expressed GCN5 acetyltransferase. 0.17% of 350,000 active. inhibition, % at 15.6 µM;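 active means every replicate shows inhibition of at least 40%; inconclusive means mean inhibition at least 40% but some replicate below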;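 further: 0% = neutral control wells and 100% = positive control wells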
# miR-122 sensor = miR-122 inhibition in Huh7 cells; Huh7 miR-122 Renilla luciferase sensor, 48 h; neutral wells = 0, positive control = 100; activation (reporter increase), % at 12.5 µM; 0.3% of 340,000 active; AID 602342;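 active means mean replicate activation score at least 90 and every replicate individually at or above 90; inconclusive means only one of the two criteria met; inactive means neither criterion met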;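 further: higher luciferase means less miR-122 activity so hits act as miR-122 inhibitors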
# MITF TRPM1 HTS = activators of MITF-driven TRPM1 promoter activity in SK-MEL-5 cells; SK-MEL-5 TRPM1-promoter luciferase, 24 h; % of positive control, neutral wells = 0; activation, % at 12.5 µM; 0.75% of 300,000 active; AID 588334;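 active means mean activation of at least 80% with every replicate also reaching 80%; inconclusive means mean reaches 80% but some replicate falls short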;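 further: 0% = neutral control wells and 100% = parthenolide positive control wells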
# Wnt act = activators of Wnt/beta-catenin signaling; activation, % at 9.35 µM; Wnt/beta-catenin reporter cell assay, activator, plate reader; 1.2% of 300,000 active; in the data active means activation above about 30%, passing the limit was not always enough; inconclusive means no clear call, values can overlap the other calls;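 further: 0% = neutral control wells and 100% = positive control wells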
# UUG fidelity = alters start codon recognition fidelity in yeast | S. cerevisiae UUG-firefly luciferase reporter, luminescence/redox ratio | activity score, % at 18.7 µM | hit rate 0.13% among 350,000 | AID 602363;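 active means replicate mean at a twofold rise or more, about +100% in these data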;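 further: firefly luciferase made from a UUG start codon reports start codon fidelity; reporter light over untreated wells divided by growth signal over untreated wells; some hits fall short of that in this replicate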
# TRPM1 prom inh = MITF TRPM1 promoter inhibition in SK-MEL-5 cells | SK-MEL-5 TRPM1 promoter luciferase, 24 h | inhibition, % at 12.5 µM | 0.83% of 330,000 active | AID 488899;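 active means mean inhibition across replicates of 60% or more, whatever share of single replicates reaches that level; inconclusive means some that reach 60%, reason not given; inactive means mean inhibition across replicates below 60%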
# Numbers without * were called inactive; ? = inconclusive; · = no result; [ ] = remark or other dose.
SMILES,PGC1a acetyl inh,miR-122 sensor,MITF TRPM1 HTS,Wnt act,UUG fidelity,TRPM1 prom inh
C=CC(=O)N1C/C(=C/c2ccc(F)cc2)C(=O)/C(=C\c2ccc(F)cc2)C1,82.7*,-12.9,-95.9,-9.3,·,96.0*
COc1ccc(NC(=O)Nc2ccc3nccnc3c2)cc1,13.3,2.5,95.8*,·,-17.9,-97.5
COc1ccc(NC(=O)Nc2ccc(OC)cc2)cc1,5.7,2.8,62.0,·,-5.9,-52.6
O=C(Nc1cccc(Cl)c1)Nc1ccc2nccnc2c1,·,·,111.6*,-1.1,-5.3,-103.8
COc1ccc(NC(=O)Nc2ccccc2F)cc1,-15.6,·,71.7,24.6,-27.1,-69.3
COc1ccc(NC(=O)Nc2nccs2)cc1,11.0,2.0,32.7,·,-12.3,-29.4
COc1ccc(NC(=O)Nc2ccc(N(C)C)cc2)cc1,5.3,1.4,66.9,64.7*,-19.4,-58.3
COc1ccc(NC(=O)Nc2ccccc2SC)cc1,-4.5,0.7,34.9,39.6*,0.8,-32.4
C[C@H](CO)N1C[C@H](C)[C@@H](CN(C)C)Oc2ccc(NC(=O)CCN3CCOCC3)cc2C1=O,6.8,3.5[16.7 µM],·,·,-8.1,·
C[C@H](CO)N1C[C@H](C)[C@@H](CN(C)C(=O)Nc2ccccc2)Oc2ccc(NS(=O)(=O)c3ccccc3)cc2CC1=O,9.7,-3.1[16.7 µM],·,·,13.6,·
CCCNC(=O)Nc1ccc2c(c1)C(=O)N(C)C[C@H](OC)[C@@H](C)CN(Cc1ccncc1)[C@H](C)CO2,-2.3,-4.4[16.7 µM],·,·,·,·
COc1ccc(NC(=O)Nc2ccc3nonc3c2)cc1,3.5,0.4,·,38.6*,-15.0,·
Cn1nnc2cc(C(=O)Nc3ccc4ccccc4c3)ccc21,·,·,?,55.5*,·,-79.7
Cn1nccc1NC(=O)Nc1cccc(Cl)c1,-1.6,-9.1,·,2.8,-9.1,3.5
COC(=O)c1ccc(NC(=O)Nc2ccc(OC)cc2)cc1,-11.3,-1.7,33.3,1.3,-16.2,-31.1
COc1ccc(C(=O)Nc2ccc3ccccc3c2)cc1OC,-3.3,-5.3,·,15.3,-10.9,-65.5
Cn1nnc2cc(NC(=O)Nc3cccc(Cl)c3)ccc21,-13.0,-2.2,93.3*,19.3,-29.5,-98.5
COCCCNC(=S)NNC(=O)c1csc(C)n1,4.9,·,-12.0,41.0*,·,15.2
O=[N+]([O-])c1cccc(COc2ccc(CN3CCOCC3)cc2)c1,-5.5,-1.6,111.5*,9.4,-30.1,-108.2
CC(=O)Nc1ccc(OCc2cccc([N+](=O)[O-])c2)cc1,·,·,6.2,59.2*,·,-6.8
COc1cc2c(C(=O)N3CCN(C)CC3)c(C)n(-c3ccccc3)c2cc1Br,2.2,-4.4,8.7,-6.2,-0.2,-5.3
CCN(CC)CCNC(=O)c1c(C)n(-c2ccccc2)c2cc(Br)c(OC)cc12,-18.3,-6.2,-74.0,-17.0,-4.7,74.3*
COc1ccc(S(=O)(=O)Nc2ccc3c(c2)C(=O)N([C@@H](C)CO)C[C@H](C)[C@H](CN(C)C(=O)c2ccccc2)OCCCC[C@@H](C)O3)cc1,·,3.2[16.7 µM],·,·,24.3,·
COc1ccc(C(=O)c2c(C(F)(F)F)oc3c2C(=O)c2ccccc2C3=O)cc1OC,46.2,-2.7,·,-15.1,-58.9,89.6*
COc1ccc(/C(N)=N/OC(=O)CSc2ccccc2)cc1OC,-6.5,-4.8,55.0,44.6*,-5.7,-51.6
# Further records
SMILES,PGC1a acetyl inh,miR-122 sensor,MITF TRPM1 HTS,Wnt act,UUG fidelity,TRPM1 prom inh
CCOC(=O)c1ccc(OS(=O)(=O)c2ccccc2)c(OC)c1,·,·,?,54.4*,·,-77.9
CCOc1cc(C(=S)N2CCOCC2)ccc1OS(=O)(=O)c1ccccc1,6.2,2.4,-0.4,·,-9.0,0.3
COc1ccc(/C(N)=N/OC(=O)CCc2ccccc2)cc1OC,3.0,·,11.6,·,·,-11.2
COc1ccc(C(=O)O/N=C(\N)c2ccccc2)cc1OC,8.6,-2.8,49.0,56.1*,-0.9,-60.8
CCC(=O)Nc1ccc2c(c1)C(=O)N(C)C[C@@H](OC)[C@@H](C)CN(C(=O)CN1CCOCC1)[C@H](C)CO2,10.0,-4.9[16.7 µM],·,·,·,·
O=C(c1ccc(Br)cc1)c1cc([N+](=O)[O-])ccc1N1CCCCC1,-21.8,185.3*,·,·,14.7,38.4
COCC#Cc1cnc2c(c1)C(=O)N([C@@H](C)CO)C[C@H](C)[C@@H](CN(C)C(=O)c1ccc(F)cc1)O2,8.3,-0.5[16.7 µM],·,·,4.3,·
CC(C)Sc1ccc(C(=O)Nc2ccc(F)cc2F)cn1,-1.8,·,?,49.4*,·,-82.9
CC(C)NC(=O)N(C)C[C@H]1OCCCC[C@H](C)Oc2ccc(NC(=O)c3ccccc3)cc2C(=O)N([C@@H](C)CO)C[C@@H]1C,-1.3,-7.7[16.7 µM],·,·,·,·
CC(C)Oc1ccc(CNC(=O)Oc2ccccc2)cc1,·,5.3,91.5*,-0.8,-12.1,-88.6
COc1ccc(CNC(=S)NCc2ccc(OC(C)C)cc2)cc1,8.8,1.0,-14.0,-2.6,-33.9,11.9
C[C@@H]1CN([C@H](C)CO)C(=O)c2cc(NC(=O)C3CCCCC3)ccc2O[C@@H](C)CCCCO[C@@H]1CN(C)Cc1ccc2c(c1)OCO2,·,-14.2[16.7 µM],·,·,-2.6,·
COCC(=O)N1[C@H](CO)[C@H](c2ccccc2)[C@@H]1CNC(=O)c1ccccn1,4.4,108.3*[16.7 µM],·,·,0.1,·
CCc1ccccc1-n1c(SCC(=O)N2CCCC2)nnc1-c1ccccn1,10.7,-3.0,1.0,64.8*,-21.1,0.0
Cn1c(SCC(=O)c2ccccc2)nnc1-c1ccc(O)cc1,5.6,-3.3,23.0,63.6*,-23.0,-17.1
Cn1c(SCC(=O)c2ccccc2)nnc1-c1ccco1,-4.9,-23.5,30.0,39.9*,3.2,-23.3
Cn1c(SCC(=O)c2ccccc2)nnc1-c1ccccn1,-3.0,-0.7,·,56.9*,-4.5,-42.5
O=C(C[C@H]1CC[C@H](NS(=O)(=O)c2ccc(F)cc2)[C@H](CO)O1)NCc1ccc(Cl)c(Cl)c1,-2.5,43.7[16.7 µM],·,·,·,·
Cc1ccc(S(=O)(=O)Nc2ccc3c(c2)CC(=O)N([C@@H](C)CO)C[C@H](C)[C@@H](CN(C)Cc2ccc(Cl)c(Cl)c2)O3)cc1,2.0,-3.2[16.7 µM],·,·,3.2,·
O=C1c2ccccc2C(=O)c2c1ncn2-c1ccccc1,5.2,10.6,-57.9,-0.9,-1.7,60.8*
O=C1c2ccccc2C(=O)c2[nH]cnc21,·,·,-39.4,2.1,0.9,42.7
O=C(Nc1cccnc1)c1cc(-c2ccc(Br)cc2)on1,13.4,-3.0,·,49.7*,-16.3,·
CCCc1cc(C(=O)Nc2ccc(F)c(Cl)c2)no1,·,-4.0,107.5*,21.2,-18.7,-106.9
CCCc1cc(C(=O)NCc2cccnc2)no1,2.4,4.2,-9.4,2.6,-15.0,5.9
CCCc1cc(C(=O)Nc2ccc(C(C)=O)cc2)no1,·,·,31.2,14.4,-15.3,-37.3
O=C(Nc1cccnc1)c1cc(-c2ccccc2)on1,5.7,-1.8,0.9,2.2,-26.6,1.2
CC(C)n1cc(NC(=O)c2cc(-c3ccccc3)on2)cn1,-13.9,113.9*,18.6,·,-15.8,-17.8
CCCc1cc(C(=O)Nc2cccnc2)no1,-9.5,6.8,·,41.4*,-14.9,·
CCCNC(=O)N1C[C@H](O)COC[C@@H]2O[C@H](CC(=O)N3CCC(Cc4ccccc4)CC3)CC[C@H]21,-3.1,-3.5[16.7 µM],·,·,·,·

# Record cards, as listed above. Order of values: PGC1a acetyl inh | miR-122 sensor | MITF TRPM1 HTS | Wnt act | UUG fidelity | TRPM1 prom inh
# CCC(=O)Nc1ccc2c(c1)C(=O)N(C)C[C@@H](OC)[C@@H](C)CN(C(=O)CN1CCOCC1)[C@H](C)CO2 is listed as 10.0 | -4.9[16.7 µM] | · | · | · | ·
# O=C1c2ccccc2C(=O)c2c1ncn2-c1ccccc1 is listed as 5.2 | 10.6 | -57.9 | -0.9 | -1.7 | 60.8*

# Five entries picked at random from those above:
SMILES,PGC1a acetyl inh,miR-122 sensor,MITF TRPM1 HTS,Wnt act,UUG fidelity,TRPM1 prom inh
O=C(Nc1cccnc1)c1cc(-c2ccc(Br)cc2)on1,13.4,-3.0,·,49.7*,-16.3,·
CCCc1cc(C(=O)NCc2cccnc2)no1,2.4,4.2,-9.4,2.6,-15.0,5.9
CCc1ccccc1-n1c(SCC(=O)N2CCCC2)nnc1-c1ccccn1,10.7,-3.0,1.0,64.8*,-21.1,0.0
CC(C)Oc1ccc(CNC(=O)Oc2ccccc2)cc1,·,5.3,91.5*,-0.8,-12.1,-88.6
O=C(C[C@H]1CC[C@H](NS(=O)(=O)c2ccc(F)cc2)[C@H](CO)O1)NCc1ccc(Cl)c(Cl)c1,-2.5,43.7[16.7 µM],·,·,·,·

# Screens: PubChem BioAssay, Broad Institute
